Key:
[1] = test system: NCI-N87 parental cell xenografts; conditions: single dosing of 1 mg/kg or more; cited from earlier work
[2] = test system: NCI-N87 tumor fragment #6, clone 3; test: refractory T-DM1 monoclonal cell line model, comparison to DS-8201a; type: in vivo, male mice
Description: Refractory T-DM1 NCI-N87 human gastric carcinoma tumor fragments #6 were obtained in the same manner as described above, and then the monoclonal cell line, NCI-N87 tumor fragment #6, clone 3 was isolated by passages in vitro. The obtained cell line was implanted into BALB/cAJcl-mu/nu male mice (8.0×10^6 cells in 100 μL of PBS/mouse, subcutaneous) for the efficacy test.
The tumor volumes (TV, mm) and body weights of the mice were recorded.

[3] = test system: NCI-N87 human gastric carcinoma (HER2 overexpressing) xenografts; test: refractory T-mab/P-mab model Step I; type: in vivo, male nude mice (BALB/cAJcl-mu/mu); conditions: 20 mg/kg/day (each) ip Days 1, 8, 15

Substance: trastuzumab deruxtecan [DS-8201a]
- antitumor effect [1]: tumor regression
- antitumor effect (tumor volume) ([2]; single iv dose of 1 mg/kg): failing to inhibit tumor growth
- antitumor effect (tumor volume) ([2]; single iv dose of 10 mg/kg DS-8201a): tumor regression

Substance: trastuzumab [T-mab]
- RTV (mean ± SE) ([3]; Day 22 to Day 0 (Step I)): 2.5
- T/C ([3]; Step I Day 22, vs non-treatment control): 47.9%
- Number of Death ([3]; Step I Day 22): 0
- TV (mean ± SE) ([3]; Step I Day 22): 772.9 mm^3
